{"sequences": {"note": "Chains of the proteins cited; added tags and fusions are not shown.", "UniProt Q8NER1, whole entry": "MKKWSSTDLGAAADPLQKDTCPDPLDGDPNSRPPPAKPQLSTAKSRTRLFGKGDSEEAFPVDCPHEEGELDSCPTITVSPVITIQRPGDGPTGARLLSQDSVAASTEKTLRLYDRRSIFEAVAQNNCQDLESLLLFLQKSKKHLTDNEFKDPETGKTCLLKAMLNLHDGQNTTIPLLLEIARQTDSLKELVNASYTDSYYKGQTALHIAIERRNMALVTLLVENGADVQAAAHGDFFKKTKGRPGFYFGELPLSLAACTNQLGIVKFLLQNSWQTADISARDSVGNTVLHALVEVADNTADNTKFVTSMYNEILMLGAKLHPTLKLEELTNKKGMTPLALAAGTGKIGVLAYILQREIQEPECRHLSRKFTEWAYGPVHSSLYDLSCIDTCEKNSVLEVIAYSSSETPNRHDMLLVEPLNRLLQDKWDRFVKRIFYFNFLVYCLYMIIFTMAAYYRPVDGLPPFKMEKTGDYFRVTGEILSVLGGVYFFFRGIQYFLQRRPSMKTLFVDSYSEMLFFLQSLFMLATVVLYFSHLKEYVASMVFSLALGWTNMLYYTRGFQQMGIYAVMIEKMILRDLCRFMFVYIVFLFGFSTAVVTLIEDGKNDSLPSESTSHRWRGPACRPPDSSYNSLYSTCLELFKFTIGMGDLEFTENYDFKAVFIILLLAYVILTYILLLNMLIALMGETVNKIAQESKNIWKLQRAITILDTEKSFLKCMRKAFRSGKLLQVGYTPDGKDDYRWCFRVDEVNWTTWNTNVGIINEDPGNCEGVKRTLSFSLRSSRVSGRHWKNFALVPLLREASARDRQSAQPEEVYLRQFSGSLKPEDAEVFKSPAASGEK"}, "source": "PubChem BioAssay AID540275", "about": "(National Center for Advancing Translational Sciences (NCATS), 2011)", "note": "The entries are a selection whose mix differs from that of the whole data set. Some results for these compounds are left out of this collection, so the calls shown say nothing about other tests. Records with an inconclusive call do not appear. Activity calls are given as the source filed them. Cut-off read from the data, not from the text of the source: active = activation above about 80%; inconclusive = between about 30% and that limit; inactive = weaker than that.", "data": [{"molecular_target": "Transient receptor potential cation channel subfamily V member 1 (Homo sapiens) (UniProt Q8NER1)", "assay": "HTS Assay for Compounds that Act as Agonists of the Vanilloid Receptor 1; note: 0% is about no effect", "conditions": "TRPV1-expressing cells, Fluo-8 calcium influx, agonist mode; at 8.33 µM; active compounds read high", "from_the_text": "The transient receptor potential ion channel, family V, number 1, (TRPV1) is one of the most important molecular transducers of painful stimuli and a potential target for analgesic drug development. Although recent clinical trials with orthosteric antagonists have not produced a successful drug because of a hyperthermia side effect and their tendency to block thermal noxious pain, this ion channel is undeniably well placed in the pain pathway, and the idea of blocking pain signals before they enter the CNS is an excellent concept and of proven efficacy when TRPV1 agonists are used. We propose a new approach involving allosteric modulation to impose an activity-dependent constraint within the context of inflammation and tissue damage that would alter the responsiveness of the channel in a way that an orthosteric vanilloid antagonist cannot achieve. We believe that the allosteric modulator approach has not been explored for this target. The main goal of this proposal is to identify additional, new, potent allosteric modulators of TRPV1 that can be used to investigate TRPV1 function. Our recent report provides evidence of proof of concept, but the compounds are just at the edge of utility in terms of potency. […] The question of whether they can be used as analgesic agents is complex, but if suitable compounds are identified then testing for analgesic properties will be conducted. NIH Chemical Genomics Center [NCGC] NIH Molecular Libraries Probe Centers Network [MLPCN] MLPCN Grant: MH089480-1A1 Assay Submitter (PI): Michael Iadarola, National Institute of Dental and Cranofacial Research\nUpon TRPV1 activation in TRPV1 cells, the channel opens and extracellular cations flow through the channel into the cytosol. A calcium binding dye (Fluo-8) becomes fluorescent when bound to calcium. This dye is pre-loaded into cells and is used as a marker for calcium influx. The amount of accumulated calcium is precisely quantified using the FDSS kinetic reader and the calcium dye. For the HTS assay, freshly prepared cells are plated at a density of 2000/well in 3 ul medium in 1536-well plates and cultured overnight at 35.5C. Cells will be loaded with 1 ul of the homogeneous calcium dye (ABD Bioquest) at room temperature for 40 to 90 minutes. Plates will be loaded into the FDSS kinetic reader and a 1 sec / cycle for 10 second baseline signal will be measured. Compound library will then be added with a pintool at 23 nl and measured kinetically for 3 minutes. This portion of the read is considered the agonist portion of the screen. Following the 3 minutes of incubation, an on board pipettor will deliver 1 ul of capsaicin for a final concentration equal to the EC20. Signal will be measured kinetically for an additional 2 minutes. This portion of the read is considered the allosteric enhancer portion of the screen. The FDSS reader has a standard filter set capable of measuring calcium bound Fluo-8 (ex=480 and em=520 nm).", "values": [{"smiles": "COc1ccc(Br)c(C(=O)NCC2(N3CCCCC3)CCCCC2)c1", "activation": "inactive: 5.62%"}, {"smiles": "CC(C)Oc1ccc(C(=O)NCC2(N(C)C)CCCCC2)cc1", "activation": "inactive: -2.6%"}, {"smiles": "CN(C)c1cccc(C(=O)NCC2(N(C)C)CCCCC2)c1", "activation": "inactive: 1.39%"}, {"smiles": "O=C(OC1CN2CCC1CC2)C(CO)(c1ccccc1)c1ccccc1", "note": "(centres undefined)", "activation": "inactive: 2.46%"}, {"smiles": "COc1ccc(Cl)cc1C(=O)NCC1(N(C)C)CCCCC1", "activation": "inactive: 2.11%"}, {"smiles": "COc1cccc(C(=O)NCC2(N3CCCCC3)CCCCC2)c1", "activation": "inactive: 4.94%"}, {"smiles": "O=C(NCC1(N2CCCCC2)CCCCC1)c1cccc(Cl)c1", "activation": "inactive: 0.446%"}, {"smiles": "CN(C)C1(CNC(=O)c2ccc(Br)cc2)CCCCC1", "activation": "inactive: 18.9%"}, {"smiles": "COc1cc(C(=O)NCC2(N(C)C)CCCCC2)c([N+](=O)[O-])cc1OC", "activation": "inactive: -0.155%"}, {"smiles": "O=C(NCC1(N2CCCCC2)CCCCC1)c1cc(F)c(F)cc1Cl", "activation": "inactive: -4.25%"}, {"smiles": "C=CCN1CCN(CCOC(=O)C(O)(c2ccccc2)c2ccccc2)CC1", "activation": "inactive: -0.713%"}, {"smiles": "COc1ccc(C(=O)NCC2(N(C)C)CCCCC2)cc1", "activation": "inactive: -1.69%"}, {"smiles": "O=C(NCC1(N2CCCCC2)CCCCC1)c1cccc(Br)c1", "activation": "inactive: 1.56%"}, {"smiles": "CCN1CCCC(OC(=O)C2(O)c3ccccc3C=Cc3ccccc32)C1", "note": "(centres undefined)", "activation": "inactive: 0.772%"}, {"smiles": "Cc1cc(C(=O)NCC2(N3CCCCC3)CCCCC2)ccc1[N+](=O)[O-]", "activation": "inactive: -1.05%"}, {"smiles": "CN(C)c1ccc(C(=O)NCC2(N(C)C)CCCCC2)cc1", "activation": "inactive: 0.219%"}, {"smiles": "CN(C)C1CCCC1OC(=O)C(O)(c1ccccc1)c1ccccc1", "note": "(centres undefined)", "activation": "inactive: -4.83%"}, {"smiles": "Cc1ccccc1C(=O)NCC1(N2CCCCC2)CCCCC1", "activation": "inactive: 1.2%"}, {"smiles": "COc1cc(SC)ccc1C(=O)NCC1(N(C)C)CCCCC1", "activation": "inactive: -4.35%"}, {"smiles": "CCN(CC)CC(C)C(C)OC(=O)C(O)(c1ccccc1)c1ccccc1", "note": "(centres undefined)", "activation": "inactive: 2.37%"}, {"smiles": "CC(C)N1C(=O)CC2(CCN(CCOC(=O)C(O)(c3ccccc3)c3ccccc3)CC2)C1=O", "activation": "inactive: 2.36%"}, {"smiles": "Cc1ccc(C(=O)NCC2(N3CCCCC3)CCCCC2)cc1", "activation": "inactive: 0.491%"}, {"smiles": "O=C(NCC1(N2CCCCC2)CCCCC1)c1cc([N+](=O)[O-])ccc1Cl", "activation": "inactive: 1.05%"}, {"smiles": "CN1[C@@H]2CC[C@H]1CC(OC(=O)C(O)(c1ccccc1)c1ccccc1)C2", "note": "(some centres undefined)", "activation": "inactive: -1.41%"}]}]}
